Source: EP1332762A1, “Method of treating hyperprolactinemia and prolactinomas” (Cedars-Sinai Medical Center, priority 1997, dated 1998)

By UniProt entry, the sequences of proteins in these tests, tags left out. Where a name states a change or a piece, a line headed by the entry shows the natural chain unless it says otherwise.
UniProt P32745: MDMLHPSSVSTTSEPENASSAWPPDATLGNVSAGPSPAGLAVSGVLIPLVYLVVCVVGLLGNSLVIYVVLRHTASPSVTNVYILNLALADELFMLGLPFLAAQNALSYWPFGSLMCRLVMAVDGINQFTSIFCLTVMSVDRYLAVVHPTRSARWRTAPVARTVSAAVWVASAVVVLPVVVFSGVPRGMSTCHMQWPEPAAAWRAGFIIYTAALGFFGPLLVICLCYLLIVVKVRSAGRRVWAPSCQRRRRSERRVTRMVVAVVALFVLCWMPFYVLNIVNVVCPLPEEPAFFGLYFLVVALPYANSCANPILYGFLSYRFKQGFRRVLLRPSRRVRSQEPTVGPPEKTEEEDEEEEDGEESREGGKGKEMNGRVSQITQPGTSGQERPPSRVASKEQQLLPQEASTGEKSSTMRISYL

Target: hSSTR-3 (Homo sapiens, UniProt P32745)
Test: Somatostatin receptor binding assay ([125I-Tyr11]somatostatin-14, membranes of transfected CHO-K1 cells)
Settings: radioligand 0.05 nM, 30 min at 30 °C

Ki: 0.215 µM
Compound: CC[C@@H]1NC(=O)[C@H](CCCCN)NC(=O)[C@@H](Cc2c[nH]c3ccccc23)NC(=O)[C@H](Cc2ccc(O)cc2)NC(=O)[C@@H](NC(=O)[C@@H](Cc2ccccc2)NC(=O)CN2CCN(CCO)CC2)CSSC[C@@H](C(=O)N[C@H](C(N)=O)[C@@H](C)O)NC1=O [BIM-23190]
